{"source": "PubChem BioAssay AID624297", "about": "(National Center for Advancing Translational Sciences (NCATS), 2012)", "note": "Only a part is listed here, and it is no random draw. Records with an inconclusive call do not appear. Activity calls are given as the source filed them. The call rests on the fitted dose curve; in most records, active means well fitted activation curve with a large enough effect; inconclusive means small, poorly fitted or top-dose-only effect; inactive means no such curve, though single readings can be large or run the other way."}
{"assay": "A quantitative high throughput screen for small molecules that induce DNA re-replication in SW480 colon adenocarcinoma cells; further: % of control where 0% means no effect; nearly all actives have a fitted effect of over 55% in size.", "conditions": "Hoechst DNA content imaging, 48 h; at 46.1 µM (top of the series)"}
{"smiles": "CCC(=O)N(c1ccccc1)C1(COC)CCN(CCn2nnn(CC)c2=O)CC1", "re-replication activation": "inactive: -12.6%"}
